Key:
[1] = molecular target: Bcl-XL binding to Bax and Bim (Homo sapiens, UniProt Q07817); experiment: GST pull-down, GST-Bcl-XL with Bax and Bim from cell lysates; conditions: HEK293T and A549 cell lysates; 0, 50, 100 μM BH3-M6 or 100 μM TPC; tested form: diammonium salt (as drawn, CO2NH4)
Description: FIG. 2 is a series of images illustrating that BH3-M6, but not TPC, inhibits the binding of anti-apoptotic proteins to pro-apoptotic proteins in vitro. (A) a series of graphs illustrating that BH3-M6 blocks the binding of Bak BH3 α-helix to Bcl-XL (left) or Bim BH3 α-helix to Mcl-1 (right) as measured by fluorescence polarization assay, black circles: BH3-M6, open triangles: TPC. (B) BH3-M6 inhibits the interaction of Bcl-XL or Mcl-1 with Bax and Bim as measured by GST pull-down assay. Purified GST, GST-Bcl-XL and GST-Mcl-1 fusion proteins immobilized on glutathione-Sepharose beads were incubated for 1 h with 0, 50 and 100 μM BH3-M6 or 100 μM TPC, followed by addition of cell extracts from HEK293T or A549 cells for 1 h. Proteins associated with beads were eluted and analyzed by Western blotting with Bax and Bim antibodies.
Whole cell lysates of HEK293T and A549 cells were prepared using NP-40 lysis buffer (see above). […]
The inventors next determined whether in lysates from HEK293T or A549 cells, BH3-M6 was able to disrupt the interaction between full-length Bax and Bim to full-length Bcl-XL and Mcl-1, respectively, in GST pull-down assays.

Sequences of proteins named here, by UniProt entry; tags and fusion partners are left off.
UniProt Q07817, whole entry: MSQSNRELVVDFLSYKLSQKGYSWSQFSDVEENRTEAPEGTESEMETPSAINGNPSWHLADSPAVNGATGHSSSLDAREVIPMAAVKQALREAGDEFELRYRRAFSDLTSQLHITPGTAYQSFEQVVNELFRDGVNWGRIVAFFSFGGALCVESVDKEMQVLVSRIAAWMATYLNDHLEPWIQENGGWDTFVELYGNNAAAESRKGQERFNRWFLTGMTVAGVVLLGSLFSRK

[2] = molecular target: Bcl-XL/Bax and Bcl-XL/Bim (Homo sapiens, UniProt Q07817); experiment: Co-immunoprecipitation from A549 cells; conditions: A549, serum-starved, 25 and 50 μM, 1 h; tested form: diammonium salt (as drawn, CO2NH4)
Procedure: FIG. 4 is a series of images illustrating BH3-M6 inhibits the interaction between Bcl-XL, Bcl-2, and Mcl-1 with Bim, Bak or Bax in intact cells. (A) Co-immunoprecipitation from HEK293T cells. HEK293T cells were co-transfected with HA-Bcl-XL and Flag-BimEL for 18 h. Cells were exposed to 0, 25, 50, and 100 μM of BH3-M6 or 100 μM of TPC for 2 h at 37° C., lysed and subjected to immunoprecipitation with anti-FLAG-M2 beads. The resulting immune complexes, as well as total lysates, were analyzed by Western blotting with the indicated antibodies. (B) Co-immunoprecipitation from MDA-MB-468 cells expressing Bcl-XL-IRES-BimEL, Bcl-2-IRES-BimEL, and Mcl-1-IRES-BimEL. […] The resulting immune complexes were analyzed by Western blotting with Bim, Bcl-XL, Bcl-2, and Mcl-1 antibodies. […] The resulting immune complexes were analyzed by Western blotting with the indicated antibodies. […] The resulting immune complexes were analyzed by Western blotting with the antibodies indicated on the right. […]
Next the inventors determined whether BH3-M6 could disrupt these interactions of the corresponding endogenous proteins. […] Finally, a mechanism by which freed Bax is believed to induce apoptosis is through a conformational change, which can be detected by a specific antibody. […]

inhibition of the binding of Bcl-XL to Bax and Bim [1]: dose-dependent inhibition
disruption of interaction of Bcl-XL/Bax and Bcl-XL/Bim [2]: able to disrupt
SMILES: CC(C)Cc1cc(-c2ccc(-c3ccc(CCC(=O)O)cc3CC(C)C)cc2Cc2ccccc2)ccc1OCC(=O)O

— patent publication US20130295185A1, “COMPOUNDS AND METHODS FOR INDUCING APOPTOSIS IN CANCER CELLS USING A BH3 ALPHA-HELICAL MIMETIC” (H. Lee Moffitt Cancer Center and Research Institute, Inc., priority 2011, published 2013)
